Laboratory results published in patent US6835807B1, “Drug complex and drug delivery system” (Daiichi Pharmaceuticals Co., Ltd., priority 1998, dated 2004).

How the values were obtained:
[1] = Release of the drug compound from the drug complex in Meth A homogenate (Example 8); format: in vitro ADME, murine; conditions: for released amount of the drug (DX-8951), percentage of the drug in the drug complex used: 37° C., 50 μg/ml, after 20 hours; for release of the drug in words: weakly acidic homogenate
Experimental: (§1) (50 μg/ml). […] The released amount of the drug is expressed in percentage of the released amount of the drug to the amount of the drug in the drug complex used.

Meth A cells = assay: Antineoplastic activity of the complexes of Examples 1, 5 and 6 (Example 10); format: in vivo, BALB/c mice; conditions: singly administered on the 7th day
Experimental: Meth A cells were transplanted into BALB/c mice to prepare Meth A tumor-bearing mice. On the 7th day after the transplantation, the drug complexes shown in Examples 1, 5 and 6 were singly administered, respectively. The weight of the tumor was measured on the 21th day to evaluate the inhibitory activity on the tumor and the toxicity. In the table, * represents significance in Dunnet's test (*** p<0.001, ** P<0.01, * P<0.05), the dose is expressed in terms of the weight of anhydrous free base of DX-8951, and IR represents the diminution rate of the tumor.

[2] = Release of the drug compound from the drug complex in plasma (Example 8); format: in vitro ADME; conditions: 37° C., 50 μg/ml, after 20 hours
Experimental: as §1

[3] = tested on: Meth A tumor-bearing mice; assay: Maximum tolerated dose of the drug complexes of Examples 5, 6 and 7 (Example 9); format: in vivo, BALB/c mice; conditions: single administration on the 13th day
Experimental: Meth A cells were transplanted into BALB/c mice to prepare Meth A tumor-bearing mice. On the 13th day, the drug complexes obtained in Examples 5, 6 and 7 were singly administered. After the administration, measurement of the body weight and observation of toxic death were made with time, and the maximum body-weight reduction rate and mortality were calculated, which are shown in Table 5. The dose is expressed in terms of the weight of anhydrous free base of DX-8951.
On the basis of the dose in which body weight reduction and death were observed, MTD of each complex were judged as follows.

[4] = Release of the drug compound from the drug complex in buffer (Example 8); format: physicochemical; conditions: for released amount of the drug (DX-8951), percentage of the drug in the drug complex used: 37° C., 50 μg/ml, after 20 hours
Experimental: as §1

Substance: Carboxymethyldextran polyalcohol-Gly-Gly-Gly-Phe-NH-p-C6H4—CH2—O—CO-DX-8951 [Example 6]
- released amount of the drug (DX-8951), percentage of the drug in the drug complex used ([1]; Meth A homogenate (pH 4.5)): 15.48%
- released amount of the drug (DX-8951), percentage of the drug in the drug complex used ([1]; Meth A homogenate (pH 5.5)): 4.97%
- released amount of the drug (DX-8951), percentage of the drug in the drug complex used ([1]; Meth A homogenate (pH 6.5)): 1.78%
- release of the drug in words [1]: rapidly released
- BWLmax, maximum body-weight reduction rate (Meth A cells; 0.15625 mg/kg): <0%
- N, mice died/mice used (Meth A cells; 0.15625 mg/kg): 0/6
- BWLmax, maximum body-weight reduction rate (Meth A cells; 0.3125 mg/kg): <0%
- N, mice died/mice used (Meth A cells; 0.3125 mg/kg): 0/6
- BWLmax, maximum body-weight reduction rate (Meth A cells; 0.625 mg/kg): <0%
- N, mice died/mice used (Meth A cells; 0.625 mg/kg): 0/6
- BWLmax, maximum body-weight reduction rate (Meth A cells; 1.25 mg/kg): <0%
- N, mice died/mice used (Meth A cells; 1.25 mg/kg): 0/6
- BWLmax, maximum body-weight reduction rate (Meth A cells; 2.5 mg/kg): 25.9%
- N, mice died/mice used (Meth A cells; 2.5 mg/kg): 3/6
- day when the maximum body-weight reduction was observed (Meth A cells; 2.5 mg/kg): 13 days
- released amount of the drug (DX-8951), percentage of the drug in the drug complex used [2]: 0.51%
- BWLmax, maximum body-weight reduction rate ([3]; 1.25 mg/kg): 2.4%
- N, mice died/mice used ([3]; 1.25 mg/kg): 0/3
- day when the maximum body-weight reduction was observed ([3]; 1.25 mg/kg): 14 days
- BWLmax, maximum body-weight reduction rate ([3]; 2.5 mg/kg): 22.1%
- N, mice died/mice used ([3]; 2.5 mg/kg): 0/3
- day when the maximum body-weight reduction was observed ([3]; 2.5 mg/kg): 20 days
- BWLmax, maximum body-weight reduction rate ([3]; 5 mg/kg): 24.0%
- N, mice died/mice used ([3]; 5 mg/kg): 3/3
- day when the maximum body-weight reduction was observed ([3]; 5 mg/kg): 18 days
- BWLmax, maximum body-weight reduction rate ([3]; 10 mg/kg): 27.1%
- N, mice died/mice used ([3]; 10 mg/kg): 3/3
- day when the maximum body-weight reduction was observed ([3]; 10 mg/kg): 18 days
- MTD ([3]; dose as DX-8951 anhydrous free base): 2.5 mg/kg
- released amount of the drug (DX-8951), percentage of the drug in the drug complex used ([4]; Buffer (pH 4.5)): 0.12%
- released amount of the drug (DX-8951), percentage of the drug in the drug complex used ([4]; Buffer (pH 5.5)): 0.19%
- released amount of the drug (DX-8951), percentage of the drug in the drug complex used ([4]; Buffer (pH 6.5)): 0.23%
- release of the drug in words ([4]; buffer): hardly released

Substance: carboxymethyldextran polyalcohol-Gly-Gly-NH-p-C6H4—CH2—O—CO-DX-8951 [Example 7]
- released amount of the drug (DX-8951), percentage of the drug in the drug complex used ([1]; Meth A homogenate (pH 4.5)): 0.44%
- released amount of the drug (DX-8951), percentage of the drug in the drug complex used ([1]; Meth A homogenate (pH 5.5)): 0.37%
- released amount of the drug (DX-8951), percentage of the drug in the drug complex used ([1]; Meth A homogenate (pH 6.5)): 0.55%
- release of the drug in words [1]: rapidly released
- released amount of the drug (DX-8951), percentage of the drug in the drug complex used [2]: 0.12%
- N, mice died/mice used ([3]; 2.5 mg/kg): 3/3
- N, mice died/mice used ([3]; 5 mg/kg): 3/3
- N, mice died/mice used ([3]; 10 mg/kg): 3/3
- N, mice died/mice used ([3]; 20 mg/kg): 3/3
- N, mice died/mice used ([3]; 30 mg/kg): 3/3
- released amount of the drug (DX-8951), percentage of the drug in the drug complex used ([4]; Buffer (pH 5.5)): 0.12%
